Earlier results in paper PMC6271944, “In Vitro Inhibitory Effects of Scutellarin on Six Human/Rat Cytochrome P450 Enzymes and P-glycoprotein” (Molecules, 2014).

Settings: acute and subacute toxicity studies; cited from earlier work

In the case of O=C(O)[C@H]1O[C@@H](Oc2cc3oc(-c4ccc(O)cc4)cc(=O)c3c(O)c2O)[C@H](O)[C@@H](O)[C@@H]1O [scutellarin, Scutellarin], the “margin of safety for therapeutic use” value is listed as “sufficient margin of safety”.
